Results on one substance are retold here after patent US8647613B2, “Drug carrier” (JCR Pharmaceuticals Co., Ltd., priority 2005, dated 2014).

Data set [1] is described as follows: Release of protein-bound transmembrane-type lipid from protein-bound liposome. The class given is physicochemical. As to conditions: protein bound via transmembrane-type lipid (11), pH 7.4, 37° C., up to 24 hours. On the procedure: The prepared liposome having each of 5 types of protein (FITC-labeled) bound thereto was shaken at pH 7.4 at 37° C., and the fluorescence measurement of release behavior of the proteins was performed.
A dispersion of protein-bound (or protein-conjugated) liposome (PBS 10 mL, [Lipid]=0.8 g/dL, stored at 4° C.) was shaken at 37° C. 5 minutes after the start, 1 mL of control (0 min) was sampled and subjected to centrifugation (10,000 rpm, 5 min.). Then, fluorescence measurement (FITC, λex=490 nm, λem=520 nm) of the supernatant (700 μL) was performed, and the separated protein was quantified based on the calibration curve. 2, 4, 8, 12 and 24 hours later also, the same operation was performed to measure the time-dependent change of the released protein. […] The symbols in FIG. 3 represent the following: (●): α-lactalbumin; (▪): rHSA; (□): IgG; (▴): ferritin; and: (Δ): thyrogrobulin.

The conditions of data set [2]: cited from earlier work.

Take rHSA: model protein, 66.5 kDa: the “protein stably retained on the liposome surface” value in data set [1] is listed as “about 90%”. For the same substance, in data set [2] (Table 2), the Isoelectric point is reported as 5.1. Besides, the “Isoelectric point (-)” value in data set [2] (Table 5) is on record as 5.1.
